Measured values from the OPERA property sets (Mansouri et al. 2018).

Settings: experimental values compiled from the literature

Cc1ccc([N+](=O)[O-])c([N+](=O)[O-])c1
solubility: 549 µM (≈ 100 µg/mL)

Converted amounts (≈) assume the structure as drawn.
